Test [1] relates to CHO. Nature of the test: Selectivity ratio of EC50 for GluN1/GluN2C receptor (unknown origin) to EC50 for GluN1/GluN2A receptor (unknown origin) expressed in CHO cells. The note with it: Homo sapiens. It counts as cell-based.
For test [2], the system named is CHO. Nature of the test: Selectivity ratio of EC50 for GluN1/GluN2D receptor (unknown origin) to EC50 for GluN1/GluN2A receptor (unknown origin) expressed in CHO cells. It counts as cell-based. The following applies: Homo sapiens.

Each structure is given as a SMILES string.

In the case of `N#C[C@@H]1C[C@H]1c1c(Cl)ccc2nc(Cn3nc(C(F)(F)F)cc3Cl)cc(=O)n12`, the Ratio EC50 with CHO [1] and with CHO [2] was > 100 each time.

The record behind these values is ChEMBL document CHEMBL3870360, “GluN2A-Selective Pyridopyrimidinone Series of NMDAR Positive Allosteric Modulators with an Improved in Vivo Profile” (ACS Med Chem Lett, 2017).
